Sampled rows, rich in hits. Any-hit rate of the full collection: about 1.5%.
Cneo AK release: Cryptococcus neoformans cell lysis inducers, primary screen, AK release luminescence, single concentration. C. neoformans lysis, adenylate kinase release luminescence, 4 h; normalised: neutral wells 0, clomiphene wells 100. lysis activity, % at 15 µM. 360,000 compounds, 0.2% hits;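 active means mean lysis activity across replicates of at least 80%, whatever share of replicates individually reach that level; inactive means mean lysis activity below 80%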
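Material: C. neoformans cells; Schedule: 4 h static compound exposure, 37 °C, read 1 h post-reagent; Measured by: adenylate kinase release luminescence; Read-out: signal increase indicating cell lysis; Controls: Clomiphene as positive lysis control.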
FN deposition inh: inhibitors of fibronectin matrix deposition, primary screen, AH1F cells, Alexa488-fibronectin fluorescence, plate reader; AH1F fibroblasts, overnight; inhibition, % at 12.6 µM; 350,000 compounds, 0.086% hits;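 active means mean inhibition across replicates of 30% or more, regardless of how many single replicates reach that level; inconclusive means mean under 30% yet at least half of replicates reach 30%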;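 further: positive control wells lacked labelled fibronectin entirely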
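Assay system: AH1F fibroblasts assembling fluorescent fibronectin matrix; Amount: 10000 AH1F cells per well; Buffer or medium: DMEM, 2% serum; Probe or stimulus: Alexa488-fibronectin, 24 nM final in well; Doses: single compound dose, delivered by pin transfer; Incubation: 1 h adhesion, overnight exposure; Measured by: fluorescence 485/525 nm; Read-out: fibronectin deposition inhibition.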
Yeast UUG start: alters start codon recognition fidelity in yeast. S. cerevisiae UUG-firefly luciferase reporter, luminescence/redox ratio. AID 602363. activity score, % at 18.7 µM. hit rate 0.13% among 350,000;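 active = replicate mean at a twofold rise or more, about +100% in these data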;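 note: firefly luciferase made from a UUG start codon reports start codon fidelity; reporter light over untreated wells divided by growth signal over untreated wells; some hits fall short of that in this replicate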
PGC1a acetyl inh: inhibitors of PGC1a acetylation signal, primary screen, cell-based, U2OS, AlphaScreen, inhibitor mode; 350,000 compounds, 0.17% hits; AlphaScreen anti-acetyl-lysine; with virally co-expressed GCN5 acetyltransferase; inhibition, % at 15.6 µM;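 active means every replicate shows inhibition of at least 40%; inconclusive means mean inhibition at least 40% but some replicate below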;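 further: 0% = neutral control wells and 100% = positive control wells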
miR122 inh: miR-122 Renilla sensor signal increase in Huh7, primary screen, miR-122 inhibitor project, cell-based, single point, plate reader; Huh7 miR-122 Renilla luciferase sensor, 48 h; neutral wells = 0, positive control = 100; activation (reporter increase), % at 12.5 µM; 340,000 compounds, 0.3% hits; AID 602342, 2012;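 active means mean replicate activation score at least 90 and every replicate individually at or above 90; inconclusive means only one of the two criteria met; inactive means neither criterion met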;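 further: higher luciferase means less miR-122 activity so hits act as miR-122 inhibitors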
Env fusion inh: inhibitors of HIV-1 Env-driven cell-cell fusion, primary screen, HeLa-JRFL effector, CEM21 target cells, luciferase; inhibition, % at 12.3 µM; 360,000 compounds, 1.1% hits; AID 651610, 2012;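 active means mean replicate inhibition score of at least 50 and every replicate individually at or above 50; inconclusive means only one of the two criteria met; inactive means mean below 50 and not all replicates reaching 50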;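 further: 0% = plate neutral controls and 100% = maraviroc near 300 nM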
Starred values were filed as active, the others as inactive; u = inconclusive; x = not tested or not shown; [ ] = remark or other dose.

Values run as follows: Cneo AK release	FN deposition inh	Yeast UUG start	PGC1a acetyl inh	miR122 inh	Env fusion inh
- Cc1ccc(S(=O)(=O)N/N=C/c2ccc(OCC(=O)Nc3ccccc3Cl)cc2)cc1
    1.1	5.3	25.5	x	219.5*	u
- Cc1ccc(OCC(=O)Nc2ccccc2-c2ccccc2NC(=O)COc2ccc(C)cc2)cc1
    x	6.6	x	x	x	91.1*
- COc1ccc(OCC(=O)Nc2ccccc2-c2ccccc2)cc1
    x	x	x	-11.1	4.8	-11.5
- Cc1ccc(-n2c(SCc3ccc(C#N)cc3)nnc2-c2ccccn2)cc1
    0.0	6.9	-21.0	6.7	-3.5	-7.7
- Cc1ccc(OCc2nnc(SCc3ccc(C#N)cc3)n2-c2ccc(C)cc2)cc1
    1.2	x	-20.3	-8.3	x	64.7*
- C=CCn1c(COc2ccc(Cl)cc2)nnc1SCc1ccc(C#N)cc1
    1.4	x	-8.4	4.3	19.4	58.0*
- C[C@H](CO)N1C[C@H](C)[C@H](CN(C)Cc2ccc(F)cc2)OCc2ccccc2-c2ccccc2C1=O
    0.1	-5.6	x	22.2	x	56.7*[16.7 µM]
- C[C@H]1CN([C@@H](C)CO)C(=O)c2ccccc2-c2ccccc2CO[C@H]1CN(C)Cc1ccc(F)cc1
    0.0	9.8	x	-1.3	x	73.0*[16.7 µM]
- C[C@H]1CN([C@@H](C)CO)C(=O)c2ccccc2-c2ccccc2CO[C@@H]1CN(C)Cc1ccc(F)cc1
    45.8	3.3	x	1.0	x	u
- C[C@@H]1CN([C@@H](C)CO)C(=O)c2ccccc2-c2ccccc2CO[C@@H]1CN(C)Cc1ccc(F)cc1
    x	-1.4	x	x	x	x
- C[C@H]1CN([C@@H](C)CO)C(=O)c2ccccc2-c2ccccc2CO[C@H]1CN(C)Cc1cccc(F)c1
    -3.0	-2.1	x	-24.4	x	62.1*[16.7 µM]
- CC(NC(=O)c1cc(S(=O)(=O)N(C)C)ccc1N1CCCC1)C1CC2CCC1C2 (stereo not given)
    x	2.5	x	-5.9	x	71.5*
- CC(=O)Nc1ccc(S(=O)(=O)Nc2cccc(-c3csc(C)n3)c2)cc1
    9.7	-3.9	4.1	x	283.4*	4.9
- CCOC(=O)c1cccc(NS(=O)(=O)c2ccc(NC(C)=O)cc2)c1
    3.9	x	0.4	25.5	66.8	106.0*
- CCOC(=O)c1cc(S(=O)(=O)Nc2cccc(OC)c2)cn1C
    -1.4	-0.9	-13.7	5.7	132.0*	-10.1
- CCOC(=O)c1sc(NC(=O)Cn2nnc3sc4c(c3c2=O)CCCC4)nc1C
    5.9	0.0	-12.9	x	-2.5	-84.2
- O=C(Cc1c(Cl)cccc1Cl)Nc1ccncc1
    0.9	x	-14.9	x	x	23.9
- O=C(Cc1c(Cl)cccc1Cl)Nc1ccncc1Cl
    2.0	x	-15.4	x	x	61.2*
- CCOC(=O)c1ccc(NC(=O)CC2SC3=NCCN3C2=O)cc1 (stereo not given)
    x	-4.5	x	x	x	8.2
- C[C@@H]1CN([C@@H](C)CO)C(=O)c2c(c3ccccc3n2C)-c2ccccc2CO[C@H]1CN(C)Cc1cccc(C(F)(F)F)c1
    x	-15.4	x	-20.1	x	57.4*[16.7 µM]
- C[C@H]1CN([C@@H](C)CO)C(=O)c2c(c3ccccc3n2C)-c2ccccc2CO[C@H]1CN(C)C(=O)C1CC1
    -0.8	-2.6	x	11.0	x	61.2*[16.7 µM]
- C[C@H]1CN([C@@H](C)CO)C(=O)c2c(c3ccccc3n2C)-c2ccccc2CO[C@H]1CN(C)C(=O)Cc1ccccc1
    -0.5	1.7	x	-21.8	x	56.9*[16.7 µM]
- C[C@@H]1CN([C@@H](C)CO)C(=O)c2c(c3ccccc3n2C)-c2ccccc2CO[C@H]1CN(C)C(=O)Cc1ccccc1
    0.4	1.4	x	3.6	x	36.6[16.7 µM]
- CCNC(=S)NNC(=O)c1csc(CC)c1
    0.6	-19.1	-12.0	8.6	-4.5	-370.1
- C[C@@H]1CCCCO[C@H](CN(C)C(=O)CCCN(C)C)[C@@H](C)CN([C@H](C)CO)C(=O)c2cc(NC(=O)Cc3ccccc3)ccc2O1
    115.6*	5.6	32.2	-12.6	11.5[16.7 µM]	4.6[16.7 µM]
- C[C@@H]1CCCCO[C@@H](CN(C)C(=O)CCCN(C)C)[C@@H](C)CN([C@H](C)CO)C(=O)c2cc(NC(=O)Cc3ccccc3)ccc2O1
    103.8*	-7.5	29.9	9.8	40.8[16.7 µM]	12.9[16.7 µM]

Entries above that bear a hit mark in miR122 inh.
| SMILES | Yeast UUG start | PGC1a acetyl inh | miR122 inh | Env fusion inh |
| --- | --- | --- | --- | --- |
| Cc1ccc(S(=O)(=O)N/N=C/c2ccc(OCC(=O)Nc3ccccc3Cl)cc2)cc1 | 25.5 | x | 219.5* | u |
| CC(=O)Nc1ccc(S(=O)(=O)Nc2cccc(-c3csc(C)n3)c2)cc1 | 4.1 | x | 283.4* | 4.9 |
| CCOC(=O)c1cc(S(=O)(=O)Nc2cccc(OC)c2)cn1C | -13.7 | 5.7 | 132.0* | -10.1 |

Assay outcomes deposited in PubChem BioAssay by Broad Institute.
